One substance from paper PMC5734940 (Toxicology and applied pharmacology, 2017) can be followed below.

The series deals with Human iPSC-derived cardiomyocytes (iCell cardiomyocytes).

Consider Phenol, isopropylated, phosphate (3:1), for which the “Effect on mitochondria / mitochondria potential (in words)” value was “selectively decreased mitochondria potential”.
